In PubChem BioAssay AID1851 (National Center for Advancing Translational Sciences (NCATS), 2009):
What follows is the remainder of the data, with few or none of the hits. Records with an inconclusive call do not appear. The source made the active and inactive calls. Calls follow the shape of the dose curve; as a rule, active = well fitted curve in the direction sought with a large enough effect; inconclusive = small, poorly fitted or top-dose-only effect, or effect the other way; inactive = no such curve, though single readings can be large or run the other way.

The chains behind the UniProt entries cited, without tags or fusion partners.
UniProt P08684, whole entry, looked up: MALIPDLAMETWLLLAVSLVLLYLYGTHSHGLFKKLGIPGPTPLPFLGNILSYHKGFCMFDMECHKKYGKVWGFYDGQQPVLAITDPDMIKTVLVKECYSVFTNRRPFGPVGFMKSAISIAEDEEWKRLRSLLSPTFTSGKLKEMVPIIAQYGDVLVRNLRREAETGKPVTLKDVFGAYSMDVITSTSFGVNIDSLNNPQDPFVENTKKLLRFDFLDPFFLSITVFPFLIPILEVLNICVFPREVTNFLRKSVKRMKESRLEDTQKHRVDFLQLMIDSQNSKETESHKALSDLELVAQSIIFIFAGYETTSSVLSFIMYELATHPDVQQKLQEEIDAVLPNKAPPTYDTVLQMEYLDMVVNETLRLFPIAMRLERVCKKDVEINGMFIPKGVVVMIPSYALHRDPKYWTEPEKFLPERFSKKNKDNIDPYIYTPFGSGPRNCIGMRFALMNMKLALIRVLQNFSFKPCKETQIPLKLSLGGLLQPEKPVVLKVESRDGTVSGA

biological target: Cytochrome P450 3A4 (Homo sapiens) (UniProt P08684); test: Cytochrome panel assay with activity outcomes; details: recombinant CYP, pro-luciferin dealkylation, luminescence, p450-cyp3a4; at 57.1 µM (top of the series)
% is scaled to controls: 0 for no effect and ±100 for the full control effect.

activity, negative = inhibition, inactive:
N#Cc1ccc(CN2CCC3(CC2)CCN(C(=O)c2csnn2)CC3)cc1 -11.8%
CC(C)NC(=O)N1CC[C@@]2(CCCN(C(=O)c3cccc(F)c3)C2)C1 -14.3%
N#CCCn1c(=O)c(-c2ccc(Cl)cc2)nc2cnc(OCc3ccccc3)nc21 22.1%
Cn1c(=O)c(-c2cccs2)nc2cnc(OCc3ccccc3)nc21 -7.14%
